Test results as given in patent publication US20090181972A1, “Novel Inhibitors of Cysteine Proteases, the Pharmaceutical Compositions Thereof and their Therapeutic Applications” (priority 2005, published 2009).

Protein sequences, listed by entry. Tags and fused reporters are not part of them.
UniProt P45974, whole entry: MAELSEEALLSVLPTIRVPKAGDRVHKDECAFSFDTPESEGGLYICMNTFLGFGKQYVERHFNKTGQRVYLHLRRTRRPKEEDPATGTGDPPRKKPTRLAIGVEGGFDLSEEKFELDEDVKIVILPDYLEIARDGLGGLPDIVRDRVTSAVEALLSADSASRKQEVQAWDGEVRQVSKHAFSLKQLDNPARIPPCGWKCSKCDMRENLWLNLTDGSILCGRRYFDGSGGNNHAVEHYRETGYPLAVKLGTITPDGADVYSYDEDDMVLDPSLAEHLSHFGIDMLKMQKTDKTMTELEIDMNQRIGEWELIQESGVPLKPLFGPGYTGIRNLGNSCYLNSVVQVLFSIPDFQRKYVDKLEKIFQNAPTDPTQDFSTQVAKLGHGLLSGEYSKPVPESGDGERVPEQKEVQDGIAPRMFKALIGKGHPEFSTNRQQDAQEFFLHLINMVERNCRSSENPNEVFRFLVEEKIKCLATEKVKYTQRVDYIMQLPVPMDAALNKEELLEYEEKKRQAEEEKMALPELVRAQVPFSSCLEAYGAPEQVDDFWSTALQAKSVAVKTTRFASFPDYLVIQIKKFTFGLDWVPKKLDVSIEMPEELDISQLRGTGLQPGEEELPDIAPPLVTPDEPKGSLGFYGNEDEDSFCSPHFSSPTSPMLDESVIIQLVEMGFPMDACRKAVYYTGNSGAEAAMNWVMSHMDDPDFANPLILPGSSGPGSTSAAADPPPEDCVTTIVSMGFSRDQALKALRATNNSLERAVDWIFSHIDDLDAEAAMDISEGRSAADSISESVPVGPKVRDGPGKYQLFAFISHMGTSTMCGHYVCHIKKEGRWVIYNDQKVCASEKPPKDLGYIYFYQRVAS
UniProt Q93009, whole entry: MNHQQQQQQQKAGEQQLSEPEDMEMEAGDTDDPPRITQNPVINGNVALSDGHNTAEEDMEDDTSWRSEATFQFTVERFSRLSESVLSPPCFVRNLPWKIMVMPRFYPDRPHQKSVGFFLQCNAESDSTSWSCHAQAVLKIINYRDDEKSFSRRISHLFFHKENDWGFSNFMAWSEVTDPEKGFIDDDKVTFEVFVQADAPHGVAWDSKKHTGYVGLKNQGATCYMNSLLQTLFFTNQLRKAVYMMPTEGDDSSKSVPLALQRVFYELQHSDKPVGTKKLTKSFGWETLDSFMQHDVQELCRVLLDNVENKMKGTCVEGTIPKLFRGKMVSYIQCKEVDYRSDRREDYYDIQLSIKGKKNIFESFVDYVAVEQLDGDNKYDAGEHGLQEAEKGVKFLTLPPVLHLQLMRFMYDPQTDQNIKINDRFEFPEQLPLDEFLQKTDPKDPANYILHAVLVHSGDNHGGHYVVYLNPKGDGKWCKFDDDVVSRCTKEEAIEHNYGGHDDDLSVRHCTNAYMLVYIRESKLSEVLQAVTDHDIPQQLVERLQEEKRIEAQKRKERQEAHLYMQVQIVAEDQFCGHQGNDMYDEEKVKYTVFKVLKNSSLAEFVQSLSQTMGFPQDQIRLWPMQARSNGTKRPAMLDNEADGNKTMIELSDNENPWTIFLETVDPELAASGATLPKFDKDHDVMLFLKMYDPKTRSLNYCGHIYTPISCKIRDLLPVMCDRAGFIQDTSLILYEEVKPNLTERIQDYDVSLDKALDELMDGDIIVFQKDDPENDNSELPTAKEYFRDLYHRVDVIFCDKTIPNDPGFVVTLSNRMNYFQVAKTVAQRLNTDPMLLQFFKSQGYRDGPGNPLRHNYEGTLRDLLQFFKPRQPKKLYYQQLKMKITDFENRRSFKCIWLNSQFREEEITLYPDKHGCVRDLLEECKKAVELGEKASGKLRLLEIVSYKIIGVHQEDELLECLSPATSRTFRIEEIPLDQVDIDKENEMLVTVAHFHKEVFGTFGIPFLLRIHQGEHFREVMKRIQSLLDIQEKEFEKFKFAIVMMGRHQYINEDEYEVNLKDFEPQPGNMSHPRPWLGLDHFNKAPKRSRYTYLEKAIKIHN
UniProt P40818, whole entry: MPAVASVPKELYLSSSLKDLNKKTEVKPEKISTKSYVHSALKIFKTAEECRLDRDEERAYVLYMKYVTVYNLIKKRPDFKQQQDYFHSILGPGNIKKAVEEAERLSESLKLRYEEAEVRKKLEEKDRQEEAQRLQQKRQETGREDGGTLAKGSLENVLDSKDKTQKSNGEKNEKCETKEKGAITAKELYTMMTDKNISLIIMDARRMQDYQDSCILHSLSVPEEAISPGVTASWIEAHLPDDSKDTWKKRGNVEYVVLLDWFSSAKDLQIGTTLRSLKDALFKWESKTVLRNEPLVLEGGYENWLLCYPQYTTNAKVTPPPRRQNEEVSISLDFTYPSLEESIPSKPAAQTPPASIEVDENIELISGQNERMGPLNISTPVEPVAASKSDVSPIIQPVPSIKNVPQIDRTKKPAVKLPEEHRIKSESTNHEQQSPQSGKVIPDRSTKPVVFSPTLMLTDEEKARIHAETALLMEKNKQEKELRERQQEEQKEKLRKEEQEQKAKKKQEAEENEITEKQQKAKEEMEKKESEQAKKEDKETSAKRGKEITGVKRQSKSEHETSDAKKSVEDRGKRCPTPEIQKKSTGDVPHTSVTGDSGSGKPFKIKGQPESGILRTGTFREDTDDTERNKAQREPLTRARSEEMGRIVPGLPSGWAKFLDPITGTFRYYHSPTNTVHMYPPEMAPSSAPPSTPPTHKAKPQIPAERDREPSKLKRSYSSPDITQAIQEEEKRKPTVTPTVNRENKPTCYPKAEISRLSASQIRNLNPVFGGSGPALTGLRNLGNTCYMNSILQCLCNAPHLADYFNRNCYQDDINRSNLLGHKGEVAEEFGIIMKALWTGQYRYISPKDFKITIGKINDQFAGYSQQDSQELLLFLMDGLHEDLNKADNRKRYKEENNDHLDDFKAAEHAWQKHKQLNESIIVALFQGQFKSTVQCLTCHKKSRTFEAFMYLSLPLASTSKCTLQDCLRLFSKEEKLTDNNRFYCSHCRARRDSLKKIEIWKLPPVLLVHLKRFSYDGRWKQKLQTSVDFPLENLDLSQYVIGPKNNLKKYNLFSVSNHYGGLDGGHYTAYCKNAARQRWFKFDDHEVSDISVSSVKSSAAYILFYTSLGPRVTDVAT
UniProt P15374, whole entry: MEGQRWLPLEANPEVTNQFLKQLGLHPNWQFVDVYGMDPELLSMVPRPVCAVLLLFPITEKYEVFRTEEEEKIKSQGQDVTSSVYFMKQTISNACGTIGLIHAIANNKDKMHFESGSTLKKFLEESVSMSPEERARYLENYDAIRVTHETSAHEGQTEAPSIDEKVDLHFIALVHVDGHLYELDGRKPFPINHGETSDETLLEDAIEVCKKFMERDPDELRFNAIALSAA

Columns and labels:
USP5 = USP5 (Homo sapiens, UniProt P45974); assay: USP5 activity assay; details: read-out: USP 5; 400 nM Ub-AMC, 300 pM enzyme; pre-incubated 30 minutes at 25° C., 60 minutes at 37° C.; sigmoidal fit
USP7 = USP7 (Homo sapiens, UniProt Q93009); assay: USP7 activity assay; details: read-out: USP 7; 400 nM Ub-AMC, 152 pM enzyme; pre-incubated 30 minutes at 25° C., 60 minutes at 37° C.; sigmoidal fit
Excerpt: The cDNA encoding USP7 was obtained by PCR amplification from placenta mRNA. USP7 cDNA was subcloned by PCR into a baculovirus expression vector (pFastBac-HT; Invitrogen). A cDNA encoding a mutated USP7 was generated by mutagenic PCR. The corresponding protein encodes a cysteine to alanine substitution at residue 223. The sequences were ascertained by sequencing of the entire open reading frame. Bacmids encoding USP7 were generated following DH10bac transposition. The corresponding bacmids were transfected into insect cells (Sf9). Viruses were recovered from culture supernatant and amplified twice. Insect cells (Sf9 or High Five; lnvitrogen) were infected for 72 hours. […] Proteins purifications were analyzed on 4-12% NuPAGE (Invitrogen). […]
Reactions were performed as duplicates in Black LJL 96 well plates (HE microplates; Molecular Devices; 20 μl final reaction volume). […] The concentrations were determined in order to perform specificity assays under initial velocities at fixed substrate concentration. […] Readings were performed on a Pherastar Fluorescent Reader (BMG). λ Emission 380 nm; λ Excitation=460 nm. Data (mean values +/− standard deviation) were analyzed as % of control (no compound) and plotted as percentage versus the Log of the compound concentration using GraphPad (Prism). […]

USP8 = USP8 (Homo sapiens, UniProt P40818); assay: USP8 activity assay; details: read-out: USP 8; 400 nM Ub-AMC, 630 pM enzyme, pH8.8; pre-incubated 30 minutes at 25° C., 60 minutes at 37° C.; sigmoidal fit
Uch-L3 = Uch-L3 (Homo sapiens, UniProt P15374); assay: UCH-L3 activity assay; details: read-out: Uch-L3; 400 nM Ub-AMC, 13 pM enzyme; pre-incubated 30 minutes at 25° C., 60 minutes at 37° C.; sigmoidal fit
Method: Uch-L3 was diluted in USP buffer (50 mM Tris HCl; 0.5 mM EDTA; 5 mM DTT; 0.01% Triton X-100; Bovine Serum Albumin 0.05 mg.ml^−1 pH 7.6). Compounds stocks (100 mM) were stored at −20° C. in DMSO. Compounds were tested at the following final concentrations: 100 μM; 33.3 μM; 11.1 μM; 3.7 μM; 1.23 μM; 412 nM; 137 nM; 45.7 nM; 15.2 nM; 5 nM.
Reactions were performed as duplicates in Black LJL 96 well plates (HE microplates; Molecular Devices; 20 μl final reaction volume). The substrate concentration for Uch-L3 was 400 nM Ub-AMC (Boston Biochem). The concentration of the enzyme (Uch-L3) in specificity assays was 13 pM. The concentrations were determined in order to perform specificity assays under initial velocities at fixed substrate concentration. Compounds were pre-incubated with enzymes for 30 minutes at 25° C. Reactions were initiated by addition of substrate to the plates containing the enzymes (+/− compounds) diluted in assay buffer. Reactions were incubated for 60 minutes at 37° C. Reactions were stopped by adding acetic acid (100 mM final). Readings were performed on a Pherastar Fluorescent Reader (BMG). δ Emission 380 nm; δ Excitation=460 nm. Data (mean values +/− standard deviation) were analyzed as % of control (no compound) and plotted as percentage versus the Log of the compound concentration using GraphPad (Prism). Data were fitted to a sigmoidal model (variable slope).

Cathepsin B = Cathepsin B (Homo sapiens, UniProt P07858); assay: Cathepsin B activity assay; details: read-out: Cathepsin B; 36 μM z-RR-AMC, 3.6 nM enzyme; pre-incubated 30 minutes at 25° C., 60 minutes at 37° C.; sigmoidal fit
Method: Cathepsin B was diluted in Cathepsin B buffer (20 mM Tris HCl pH 6.8; 1 mM EDTA; 1 mM DTT). Compounds stocks (100 mM) were stored at −20° C. in DMSO. Compounds were tested at the following final concentrations: 100 μM; 33.3 μM; 11.1 μM; 3.7 μM; 1.23 μM; 412 nM; 137 nM; 45.7 nM; 15.2 nM; 5 nM. Reactions were performed as duplicates in Black LJL 96 well plates (HE microplates; Molecular Devices; 20 μl final reaction volume). The substrate concentration for cathepsin B specificity assay was 36 μM (z-RR-AMC; Calbiochem). The concentration of the enzyme (Cathepsin B) in specificity assays was 3.6 nM. The concentrations were determined in order to perform specificity assays under initial velocities at fixed substrate concentration. Compounds were pre-incubated with enzymes for 30 minutes at 25° C. Reactions were initiated by addition of substrate to the plates containing the enzymes (+/− compounds) diluted in assay buffer. Reactions were incubated for 60 minutes at 37° C. Reactions were stopped by adding acetic acid (100 mM final). Readings were performed on a Pherastar Fluorescent Reader (BMG). δ Emission 380 nm; δ Excitation=460 nm. Data (mean values +/− standard deviation) were analyzed as % of control (no compound) and plotted as percentage versus the Log of the compound concentration using GraphPad (Prism). Data were fitted to a sigmoidal model (variable slope).

[1] = system: HCT116 colon cancer cells; assay: HCT116 cell viability and proliferation assay (MTS); details: read-out: HCT116 GI50 D3, 72 hours incubation, mean of three independent experiments
Method: HCT116 colon cancer cells were obtained from ATCC (American Type Culture Collection), and maintained in Mc Coy's 5A medium containing 10% FBS, 3 mM glutamine and 1% penicillin/streptomycin. Cells were incubated at 37° C. in a humidified atmosphere containing 5% CO2.
(§1) Cell viability was assayed using the MTS technique in 96-well culture plates (CellTiter 96® Aqueous Non-Radioactive Cell Proliferation Assay, Promega) according to the manufacturer's instructions. MTS (3-(4,5-dimethyl-thiazol-2-yl)-5-(3-carboxymethoxyphenyl)-2-(4-sulfophenyl)-2H-tetra-zolium) is a MTT-derived tetrazolium that is reduced in metabolically active cells into a soluble, cell-permeant formazan. The amount of formazan, detected by its absorbance at 492 nm is proportional to the number of living, metabolically active cells.
10^3 HCT116 cells were seeded per well. 24 hours later, the medium was changed and the cells treated in triplicate with the following concentrations of each compound: 10 μM-3.33 μM-1.11 μM-370 nM-123 nM-41 nM-14 nM and 5 nM. […]
(§2) Cells were incubated with the compounds for 72 hours, and their viability then assayed by the addition of MTS for 2 hours. Absorbance at 492 nm was measured directly from the 96-well culture plates. G150 (Growth Inhibition 50) concentrations for each compound were calculated using a sigmoidal variable slope fit (Prism 4.0, Graphpad Softwares). […]

[2] = system: PC-3 prostate cancer cells; assay: PC3 cell viability and proliferation assay (MTS); details: read-out: PC3 GI50 D3, 72 hours incubation, mean of three independent experiments
Method: PC-3 prostate cancer cells were obtained from ATCC, and maintained in F-12K medium containing 7% FBS and 1% penicillin/streptomycin. Cells were incubated at 37° C. in a humidified atmosphere containing 5% CO2.
as §1, with “(3-(4,5-dimethyl-thiazol-2-yl)-5-(3-carboxymethoxyphenyl)-2-(4-sulfophenyl)-2H-tetrazolium)” for “(3-(4,5-dimethyl-thiazol-2-yl)-5-(3-carboxymethoxyphenyl)-2-(4-sulfophenyl)-2H-tetra-zolium)”
2×10^3 PC3 cells were seeded per well. 24 hours later, the medium was changed and the cells treated in triplicate with the following concentrations of each compound: 10 μM-3.33 μM-1.11 μM-370 nM-123 nM-41 nM-14 nM and 5 nM. […]
as §2, with “GI50” for “G150”

IC50 (USP5): 549 nM | IC50 (USP7): 2600 nM | IC50 (USP8): 128 nM | IC50 (Uch-L3): 133 nM | IC50 (Cathepsin B): 12000 nM | GI50 [1]: 581 nM | GI50 [2]: 983 nM
Compound: O=C1c2ccccc2-c2nc3nnc(Cl)n3nc21
